One compound from paper PMC6273072, “Identification of a New Morpholine Scaffold as a P2Y12 Receptor Antagonist” (Molecules, 2016) can be followed below.

Amino acid sequences for entries named in this document (tags omitted).
UniProt Q9H244, whole entry: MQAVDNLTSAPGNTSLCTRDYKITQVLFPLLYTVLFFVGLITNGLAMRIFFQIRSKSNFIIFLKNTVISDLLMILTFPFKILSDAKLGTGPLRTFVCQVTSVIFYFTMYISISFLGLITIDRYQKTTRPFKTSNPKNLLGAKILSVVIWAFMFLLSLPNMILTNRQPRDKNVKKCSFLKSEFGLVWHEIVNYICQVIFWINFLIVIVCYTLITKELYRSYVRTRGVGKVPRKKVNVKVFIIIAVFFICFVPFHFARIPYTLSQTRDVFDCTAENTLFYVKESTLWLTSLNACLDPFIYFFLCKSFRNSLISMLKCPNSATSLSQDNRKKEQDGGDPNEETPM

This assay addresses rhP2Y12 receptor (Homo sapiens, UniProt Q9H244). As to the kind of experiment: rhP2Y12 receptor binding assay with [3H]-2-MeSADP (HEK293T membranes). As to conditions: read-out: Kd of radioligand at rhP2Y12 (saturation, Scatchard); [3H]-2-MeSADP saturation binding; tested as the radiolabelled form.

Turning to `CSc1nc(N)c2ncn([C@@H]3O[C@H](COP(=O)(O)OP(=O)(O)O)[C@@H](O)[C@H]3O)c2n1` [Compound 2-MeSADP, reference compound], the Kd was determined as 3.74 nM.
